Assay results as given in patent publication EP4837590A1, “ANTIBODY, AND IMMUNOCONJUGATE COMPRISING SAME AND TLR7/8 AGONIST AND USE THEREOF” (dated 2026).

Test system: A2780cisR-FRα cells
Experiment: A2780cisR-FRα tumor-bearing mouse model
Conditions: 20 mg/kg, Q3-4Dx5, intraperitoneal injection

CC(=O)O[C@H]1C(=O)[C@@]2(C)[C@H]([C@H](OC(=O)c3ccccc3)[C@]3(O)C[C@H](OC(=O)[C@H](O)[C@@H](NC(=O)c4ccccc4)c4ccccc4)C(C)=C1C3(C)C)[C@]1(OC(C)=O)CO[C@@H]1C[C@@H]2O
body weight of the mice (FIG. 22B): except the paclitaxel group, there was no significant difference in body weight | Tumor volume (mm^3) (day 26 after inoculation): 793 mm^3
